Results from PubChem BioAssay AID686954 (Sanford-Burnham Center for Chemical Genomics, 2013).
The entries are a selection whose mix differs from that of the whole data set. The source made the active and inactive calls.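 Rule for the calls: active = at 10 µM dose, at least 30% inhibition, measured as corrected fluorescence normalized to stimulator and neutral control wells; inactive = the rest.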

The chains behind the UniProt entries cited, without tags or fusion partners.
UniProt Q96SD1, whole entry: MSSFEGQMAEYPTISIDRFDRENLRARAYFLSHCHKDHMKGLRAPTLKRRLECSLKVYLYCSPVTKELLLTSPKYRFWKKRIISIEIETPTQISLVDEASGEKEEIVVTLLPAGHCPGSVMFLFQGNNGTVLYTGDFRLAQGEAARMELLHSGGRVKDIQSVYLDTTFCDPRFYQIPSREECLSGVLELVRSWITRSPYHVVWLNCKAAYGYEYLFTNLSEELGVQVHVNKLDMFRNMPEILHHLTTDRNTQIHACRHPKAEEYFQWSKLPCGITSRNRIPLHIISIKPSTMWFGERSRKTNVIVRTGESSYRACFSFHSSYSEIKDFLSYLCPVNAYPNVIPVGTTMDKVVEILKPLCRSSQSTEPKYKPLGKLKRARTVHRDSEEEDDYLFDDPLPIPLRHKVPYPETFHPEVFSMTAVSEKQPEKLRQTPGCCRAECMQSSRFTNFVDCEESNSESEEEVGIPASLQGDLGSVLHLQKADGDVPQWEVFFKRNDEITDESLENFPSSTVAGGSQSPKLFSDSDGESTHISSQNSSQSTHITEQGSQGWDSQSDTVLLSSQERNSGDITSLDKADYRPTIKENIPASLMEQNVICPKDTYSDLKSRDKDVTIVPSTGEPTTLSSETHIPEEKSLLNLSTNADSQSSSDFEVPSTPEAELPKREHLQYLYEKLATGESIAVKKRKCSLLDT

Target: Protein artemis (Homo sapiens) (UniProt Q96SD1)
Assay: blockers of Artemis DNA hairpin overhang cleavage – biochemical, fluorescence intensity, FAM/BHQ-1 hairpin substrate, primary screen (AID 686954)
Conditions: recombinant Artemis, quenched FAM hairpin cleavage fluorescence; at 10 µM; stronger effect = higher value

Structure (SMILES)	inhibition
c1ccc(CN2CCC(Nc3ccccc3)CC2)cc1	inactive: 5.76%
N/C(=N\O)c1c(N)no[n+]1[O-]	inactive: -12.4%
CCC(CO)(C(=O)OC1CN2CCC1CC2)c1ccccc1 (stereo not given)	inactive: -1%
N#CC1(Nc2ccccc2)CCN(CCc2ccccc2)CC1	inactive: 2.98%
O=C(NCC1(N2CCOCC2)CCCCC1)c1cc(=O)[nH]c2ccccc12	inactive: -2.15%
